# scFv variants of Ab-14 (light chain) against a SARS-CoV-2 spike peptide

Antigen: PDVDLGDISGINAS, a 14-residue peptide of the SARS-CoV-2 spike HR2 region.

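Designed CDR sequences, proposed from the first random library and measured here. Their group label is 14L_GP_Gen (GP: Gaussian process model; Gen: genetic algorithm; a sequence that several methods proposed may carry one label only). In AlphaSeq, yeast of one mating type display the scFv and yeast of the other type display the target. After mating in shaken culture at 30 °C for 16 h, diploids were selected and their barcode pairs sequenced. Read counts were normalised to the haploid input and turned into Kd by a linear fit to BCL2-family pairs of known affinity, for each replicate. Mating was done six times.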

Parent scFv Ab-14: VH joined to VL by the linker GGGGSGGGGSGGGGS. Changes lie in the light chain CDRs alone.
VH: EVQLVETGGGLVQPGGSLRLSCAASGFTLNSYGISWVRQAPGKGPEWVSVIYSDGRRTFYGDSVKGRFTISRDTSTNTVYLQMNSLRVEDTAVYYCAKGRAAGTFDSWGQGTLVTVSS
VL: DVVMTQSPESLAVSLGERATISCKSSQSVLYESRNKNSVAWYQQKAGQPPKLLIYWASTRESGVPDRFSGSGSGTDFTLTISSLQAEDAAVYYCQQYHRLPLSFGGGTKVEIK

Variants are written as CDR1, CDR2 and CDR3 of the light chain (limits as in the source). Parent: KSSQSVLYESRNKNSVA, WASTRES, QQYHRLPLS.
Affinities are written as log10 Kd with Kd in nM; a lower number is a better binder.
Averages over replicates are reported, and they cover detected replicates only.

| CDR-L1 | CDR-L2 | CDR-L3 | log10 Kd (nM) by replicate | mean, log10 nM | signal with controls |
|---|---|---|---|---|---|
| KFSQSELYESRNKNSVA | EASQRES | QQYHRLPLS | -0.10 / -0.36 / -0.52 / -0.42 / -0.41 / -0.23 | -0.34 | 0 of 18 |
| KYSQSYLYESRNKNSVA | NASTRES | QQYHRLPLS | 0.36 / 0.26 / 0.19 / 0.05 / 0.28 / 0.34 | 0.25 | 0 of 18 |
| KLQQSVPYESRNKNSVA | DASTRCS | QQYHRLPLS | 0.03 / 0.16 / 0.20 / 0.03 / 0.12 / 0.18 | 0.12 | 2 of 18 (2.29) |
| KVSQSCLYESRNKNSVA | EASTRES | QQYHRLPLS | -0.04 / 0.06 / 0.00 / -0.20 / -0.20 / 0.16 | -0.04 | 4 of 18 (2.23) |
| KLSQSYLYESRNKNSVA | NASTRSS | QQYHRLPLS | 0.10 / -0.16 / -0.05 / -0.56 / -0.29 / -0.21 | -0.20 | 0 of 18 |
| KLSQSFLYESRNKNSVA | NASTREE | QQYHRLPLS | 0.56 / 0.30 / 0.31 / 0.15 / 0.33 / 0.74 | 0.40 | 2 of 18 (3.25) |
| KLMQSVLYESRNKNSVA | NASTRSS | QQYHRLPLS | 0.18 / 0.22 / 0.01 / -0.21 / 0.10 / 0.31 | 0.10 | 0 of 18 |
| KLSQSVWYESRNKNSVA | NASTRMS | QQYHRLPLS | 0.24 / 0.28 / 0.17 / 0.05 / 0.10 / 0.42 | 0.21 | 0 of 18 |
| KFPQSWLYESRNKNSVA | NASTRES | QQYHRLPLS | -0.64 / -0.79 / -0.66 / -0.74 / -0.62 / -0.70 | -0.69 | 1 of 18 (4.58) |
| KLSQSVLYESRNKNSVA | SASTRES | QDYHRLPLS | 0.27 / -0.38 / -0.30 / -0.41 / -0.42 / 0.11 | -0.19 | 1 of 18 (2.30) |
| KLEQSDLYESRNKNAVA | NASTRES | QQYHRLPLS | 0.41 / 0.75 / -0.03 / 0.20 / 0.30 / 0.34 | 0.33 | 0 of 18 |
| KFSQSMLYESRNKNSVA | NASQRES | QQYHRLPLS | -0.10 / -0.22 / -0.24 / -0.39 / -0.14 / 0.02 | -0.18 | 1 of 18 (1.91) |
| KLPQSHLYESRNKNSVA | GASTRES | QQYHRLPLS | 0.48 / 0.10 / -0.10 / 0.14 / -0.12 / 0.19 | 0.12 | 2 of 18 (2.25) |
| KLVQSVLYESRNKNSVA | NASTRCS | QQYHRLPLS | 0.18 / -0.12 / -0.09 / -0.34 / -0.21 / 0.01 | -0.10 | 1 of 18 (1.55) |
| KVSQSWLYEDRNKNSVA | NASQRES | QQYHRLPLS | -0.13 / -0.25 / -0.31 / -0.31 / -0.25 / -0.03 | -0.21 | 1 of 18 (2.72) |
| KLVQSVLYESRNKNSVA | NASTRES | QQYHRLPLS | 0.72 / 0.44 / 0.47 / 0.52 / 0.24 / 0.71 | 0.52 | 0 of 18 |
| KVPQSHLYESRNKNSVA | NASTRES | QQYHRLPLS | 0.14 / 0.10 / -0.04 / 0.02 / 0.02 / 0.16 | 0.07 | 2 of 18 (2.86) |
| KVSQSELYESRNKNSVA | EASTRCS | QQYHRLPLS | 0.12 / 0.52 / 0.28 / -0.31 / -0.47 / -0.04 | 0.02 | 0 of 18 |
| KVSQSMLYESRNKNSVA | NASTRES | QQYHRLPLS | -0.25 / -0.33 / -0.29 / -0.55 / -0.43 / -0.34 | -0.36 | 0 of 18 |
| KLSQSVLYESRNKNSVA | EAETRES | QQYHRLPLS | 0.03 / -0.01 / -0.15 / -0.26 / -0.15 / 0.11 | -0.07 | 1 of 18 (2.59) |
| KLSQSEEYESRNKNSVA | NASQRLS | QQYHRLPLS | -0.15 / -0.37 / -0.36 / -0.32 / -0.35 / -0.27 | -0.30 | 0 of 18 |
| KLSQSVLMESRNCNSVA | NASTRES | QQYHRLPLS | -0.03 / -0.02 / -0.09 / -0.21 / -0.06 / 0.03 | -0.06 | 2 of 18 (2.99) |
| KVYQSQLYESRNKNSVA | NASQRES | QQYHRLPLS | -0.09 / -0.01 / -0.07 / -0.21 / 0.05 / -0.05 | -0.06 | 0 of 18 |
| KLQQSVQYESRNKNSVA | NASTRMS | QQYHRLPLS | -0.10 / -0.21 / -0.29 / -0.32 / -0.26 / -0.18 | -0.23 | 2 of 18 (2.53) |
| KVQQSWLYESRNKNSVA | NASLRES | QQYHRLPLS | 0.28 / 0.08 / -0.27 / -0.24 / -0.14 / 0.04 | -0.04 | 0 of 18 |
| KLSQSWLYESRNKNSVA | NASTREQ | QQYHRLPLS | -0.18 / -0.50 / -0.57 / -0.68 / -0.35 / -0.55 | -0.47 | 0 of 18 |
| KVSQSWLYESRNKNSVA | NASTRES | QSYHRLPLS | 0.20 / 0.13 / 0.00 / 0.01 / 0.00 / 0.13 | 0.08 | 2 of 18 (3.74) |
| KISQSVLYESRNKNSVA | EASQRES | QQYHRLPLS | 0.25 / 0.14 / 0.09 / -0.10 / 0.01 / 0.13 | 0.08 | 0 of 18 |
| KLSQSVQYESRNKNSVA | NASTRES | QQYHRLPLS | 1.05 / 0.61 / 0.44 / 0.78 / 1.15 / 0.52 | 0.76 | 2 of 18 (3.63) |
| KLSWSELYESRNKNSVA | EASQRES | QQYHRLPLS | 0.12 / -0.10 / -0.21 / -0.24 / -0.08 / -0.07 | -0.10 | 1 of 18 (4.02) |
| KLSQSMLYESRNKNSVA | NASQRED | QQYHRLPLS | -0.06 / -0.24 / -0.26 / -0.24 / -0.41 / -0.40 | -0.27 | 0 of 18 |
| KLSQSELYESRNKNSVA | NASTREW | QQYHRLPLS | 0.03 / -0.14 / -0.18 / -0.09 / -0.30 / -0.05 | -0.12 | 1 of 18 (2.49) |
| KVSPSFLYESRNKNSVA | EASTRES | QQYHRLPLS | 0.87 / 0.67 / 1.66 / 0.66 / 0.78 / 0.97 | 0.93 | 0 of 18 |
| KLQQSVLYESRNKNSVA | GASTRES | QDYHRLPLS | -0.04 / -0.15 / -0.10 / -0.13 / -0.06 / 0.04 | -0.07 | 4 of 18 (3.42) |
| KLYQSVLYESRNKNSVA | GASTRES | QQYHRLPLS | 0.06 / -0.29 / -0.02 / -0.30 / -0.25 / 0.03 | -0.13 | 0 of 18 |
| KLPQSWEYESRNKNSVA | NASTRES | QQYHRLPLS | 0.73 / 1.61 / 0.28 / 0.58 / 0.49 / 0.31 | 0.67 | 0 of 18 |
| KLSQSMLYESRNKNSVA | DASTRMS | QQYHRLPLS | -0.20 / -0.33 / -0.44 / -0.42 / -0.38 / -0.18 | -0.32 | 0 of 18 |
| KLSCSVLYESRNKNSVA | EASTRES | QQYHRLPLS | 0.10 / 0.23 / -0.04 / -0.21 / -0.14 / 0.20 | 0.02 | 1 of 18 (3.23) |
| KVSQSHLYESRMKNSVA | NASTRES | QQYHRLPLS | 0.38 / 0.23 / 0.26 / 0.21 / 0.38 / 0.26 | 0.29 | 0 of 18 |
| KLSFSYLYESRNKNSVA | EASTRES | QQYHRLPLS | 0.42 / 0.00 / 0.27 / 0.04 / -0.07 / 0.32 | 0.16 | 0 of 18 |
| KVSQSVLYESRNKNSVA | EASTREQ | QQYHRLPLS | 0.04 / -0.14 / -0.17 / -0.32 / -0.14 / -0.07 | -0.13 | 4 of 18 (3.10) |
| KLSQSELYESRNSNSVA | NASQRES | QQYHRLPLS | 0.76 / 0.12 / 0.31 / -0.04 / 0.10 / 0.31 | 0.26 | 1 of 18 (1.63) |
| KLSQSVLYESRMKNSVA | EASTRES | QQYHRLPLS | 0.02 / -0.09 / -0.18 / -0.22 / -0.01 / 0.07 | -0.07 | 0 of 18 |
| KISQSWLYESRNKNSVA | NGSTRES | QQYHRLPLS | -0.31 / -0.14 / -0.33 / -0.21 / -0.29 / -0.13 | -0.24 | 0 of 18 |
| KVSQSVLYESRNKNAVA | NASTRES | QQYHRLPLS | -0.19 / -0.32 / -0.35 / -0.41 / -0.33 / -0.31 | -0.32 | 3 of 18 (2.98) |
| KLPQSQLYESRNKNSVA | NASYRES | QQYHRLPLS | -0.13 / -0.34 / -0.28 / 0.14 / -0.30 / 0.06 | -0.14 | 3 of 18 (2.42) |

5 of these entries, quoted again:

CDR-L1	CDR-L2	CDR-L3	log10 Kd (nM) by replicate	mean, log10 nM	signal with controls
KLSQSMLYESRNKNSVA	NASQRED	QQYHRLPLS	-0.06 / -0.24 / -0.26 / -0.24 / -0.41 / -0.40	-0.27	0 of 18
KVSQSHLYESRMKNSVA	NASTRES	QQYHRLPLS	0.38 / 0.23 / 0.26 / 0.21 / 0.38 / 0.26	0.29	0 of 18
KLPQSQLYESRNKNSVA	NASYRES	QQYHRLPLS	-0.13 / -0.34 / -0.28 / 0.14 / -0.30 / 0.06	-0.14	3 of 18 (2.42)
KFSQSMLYESRNKNSVA	NASQRES	QQYHRLPLS	-0.10 / -0.22 / -0.24 / -0.39 / -0.14 / 0.02	-0.18	1 of 18 (1.91)
KLVQSVLYESRNKNSVA	NASTRCS	QQYHRLPLS	0.18 / -0.12 / -0.09 / -0.34 / -0.21 / 0.01	-0.10	1 of 18 (1.55)

As a blank, each scFv also met three strains without target: over all light chain designs, 4% of these pairings were detected, typically at 2.64 and seldom below 1.59. For each scFv, signals with the empty controls are counted beside the result, with their mean in brackets.
In the paper, a design with two or fewer of six values counts as a poor binder.
Of ten entries with the parent sequence, four were seen in most replicates (averages 0.34 to 2.37), three in one and three in none, so single entries are noisy.
A sequence measured in both rounds can read differently, since the two assays cover different ranges.

Values reported by Li et al. 2023, doi:10.1038/s41467-023-39022-2 (FLAb copy).